The chains behind the UniProt entries cited, without tags or fusion partners. Where a name states a change or a piece, a line headed by the entry shows the natural chain unless it says otherwise.
UniProt Q15554: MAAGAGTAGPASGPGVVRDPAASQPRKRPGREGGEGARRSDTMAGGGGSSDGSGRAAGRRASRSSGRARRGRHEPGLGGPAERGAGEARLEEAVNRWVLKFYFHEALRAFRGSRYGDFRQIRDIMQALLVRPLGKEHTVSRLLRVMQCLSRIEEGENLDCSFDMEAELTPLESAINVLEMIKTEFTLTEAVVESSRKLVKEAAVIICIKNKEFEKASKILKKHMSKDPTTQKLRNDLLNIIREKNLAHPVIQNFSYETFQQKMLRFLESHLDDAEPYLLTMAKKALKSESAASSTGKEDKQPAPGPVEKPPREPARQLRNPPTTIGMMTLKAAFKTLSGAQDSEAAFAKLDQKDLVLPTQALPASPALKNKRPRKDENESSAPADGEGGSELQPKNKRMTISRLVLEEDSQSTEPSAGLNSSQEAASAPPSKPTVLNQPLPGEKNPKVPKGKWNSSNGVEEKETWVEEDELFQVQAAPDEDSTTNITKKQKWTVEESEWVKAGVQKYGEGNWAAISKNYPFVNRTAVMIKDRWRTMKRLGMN

In US20210024455A1 (priority 2018, published 2021):

Tests used:
HeLa1.2.11 cells [1] = test: cell growth test (cell counting); type: cell-based; conditions: for IC50: read-out: IC50, suppressing proliferation of HeLa1.2.11 cells
TRF2 [2] = target: T1, TRF2 (Homo sapiens, UniProt Q15554); test: DSE-FRET assay, inhibition of TRF2 binding to its telomere binding sequence; conditions: compound 50 μM; reduction rate of fluorescence intensity vs control without compound
HeLa1.2.11 cells [3] = test: telomere FISH, localization of 53BP1 in telomere (TIF); conditions: 10 μM, 24 hours
TRF2 [4] = target: T1, TRF2; test: fluorescent immunostaining, intracellular localization of TRF2; conditions: HeLa1.2.11 cells, 20 μM, 24 hours
TRF2 [5] = target: T1, TRF2; test: chromatin immunoprecipitation (ChIP) assay using a TRF2 antibody; conditions: HeLa1.2.11 cells, 20 μM, 24 hours
HeLa 1.2.11 cells = test: colony formation assay; conditions: 5 to 20 μM, 10 days after seeding
HeLa1.2.11 cells [6] = test: FACS test of apoptosis (Annexin V-FITC); conditions: 20 μM, 48 hours
HeLa1.2.11 cells [7] = test: Western blot of cleaved caspase-3; conditions: 20 μM, 48 hours

## O=[N+]([O-])c1cc([N+](=O)[O-])c(Oc2ccccc2N(c2ccccc2)c2c([N+](=O)[O-])cc([N+](=O)[O-])cc2[N+](=O)[O-])c([N+](=O)[O-])c1
HeLa1.2.11 cells [1]
  IC50: 17 µM
TRF2 [2]
  inhibition rate (%) in DSE FRET assay: 49.6%

## Cc1ccc(N(c2ccccc2Oc2c([N+](=O)[O-])cc([N+](=O)[O-])cc2[N+](=O)[O-])c2c([N+](=O)[O-])cc([N+](=O)[O-])cc2[N+](=O)[O-])cc1
HeLa1.2.11 cells [1]
  IC50: 34 µM
TRF2 [2]
  inhibition rate (%) in DSE FRET assay: 22.6%

## O=[N+]([O-])c1cc([N+](=O)[O-])c(Sc2ccccc2N(c2ccccc2)c2c([N+](=O)[O-])cc([N+](=O)[O-])cc2[N+](=O)[O-])c([N+](=O)[O-])c1
TRF2 [2]
  inhibition rate (%) in DSE FRET assay: 53.2%

## CC(=O)c1ccc(N(c2ccccc2Oc2c([N+](=O)[O-])cc([N+](=O)[O-])cc2[N+](=O)[O-])c2c([N+](=O)[O-])cc([N+](=O)[O-])cc2[N+](=O)[O-])cc1
HeLa1.2.11 cells [1]
  IC50: 12 µM
TRF2 [2]
  inhibition rate (%) in DSE FRET assay: 71.7%

## CC(C)(C)c1ccc(Oc2c([N+](=O)[O-])cc([N+](=O)[O-])cc2[N+](=O)[O-])c(N(c2ccccc2)c2c([N+](=O)[O-])cc([N+](=O)[O-])cc2[N+](=O)[O-])c1
HeLa1.2.11 cells [3]
  colocalization of telomere with 53BP1 (TIF): colocalization of telomere with 53BP1 was observed
TRF2 [4]
  intracellular localization of TRF2: most of TRF2 is located outside the nucleus of the cell
TRF2 [5]
  detection of telomere DNA in immunoprecipitate by TRF2 antibody, compared with DMSO control: ≤ 50%
HeLa 1.2.11 cells
  generation of the colony: generation of the colony was suppressed depending on the treatment concentration
HeLa1.2.11 cells [1]; 5 μM, 10 μM, 20 μM, counted on days 1, 3, 5 and 7
  proliferation of cells: proliferation of cells was suppressed depending on the treatment concentration
HeLa1.2.11 cells [1]
  IC50: 22 µM
HeLa1.2.11 cells [6]
  Annexin V positive cells compared to DMSO control: many cells were Annexin V positive
HeLa1.2.11 cells [7]
  cleaved caspase-3 detection: cleaved caspase-3 was detected
TRF2 [2]
  inhibition rate (%) in DSE FRET assay: 62.2%
